Experimental data taken from patent publication USRE33375E, “Treatments employing drug-containing matrices for introduction into cellular lesion areas” (Matrix Pharmaceuticals, Inc., priority 1988, dated 1990).

Legend:
white blood cells = assay: White blood cell count in tumor-bearing mice; details: ADM 15 mg/kg, i.p.; Day 4 post injection
Method: In the next study 5-fluorouracil (5-FU) (Sigma Chem. Co., St. Louis, Mo.) with and without epinephrine (Sigma) suspended in saline by sonication (60 mg/ml) and mixed 1:1 with bovine collagen (BC) (Collagen Corp., Palo Alto, Calif.) (36 mg/ml) or normal saline. The subjects were 25 gm 12 week-old female C3H/He mice (Bantin and Kingman, Fremont, Calif.) bearing the transplatable experimental murine fibrosarcoma propagated intradermally as previously described.
On day four post-treatment, white blood cells (wbc) were counted by sampling blood from the tail, dilution in Turk's solution and counting in a hemocytometer. On day eight post-treatment, skin reaction is overlying tissue was graded for untoward response. […]
^4 White Blood Cells measured on Day 4 post injection by sampling fro […]
In the next study a combination of bleomycin sulfate (Sigma Chemical Co., St. Louis, Mo.) (15 mg/kg) and epinephrine (5 mg/kg) employed in a bovine collagen composition were evaluated for antitumor effect in the transplantable experimental murine fibrosarcoma model previously described.
In another experiment the curative potential of drug matrix formulations was evaluated in the experimental murine fibrosarcoma model. […] WBC's were determined on Day 4 following each treatment cycle and skin reaction on […] after each treatment cycle. […]

[1] = system: uninjected contralateral fibrosarcoma (RIF-1 cells); assay: Regrowth delay of the uninjected contralateral fibrosarcoma; assay type: in vivo, murine; female C3H mice; details: ADM 15 mg/kg, i.p.; time to 3× original treatment volume (~150 mm^3)
Method: A transplantable experimental murine fibrosarcoma (2×10^5 RIF-1 cells) was grown intradermally in the flank of 5 month old female C3H mice (Bantin and Kingman, Fremont, Calif.). Cis-diamine dichloroplatinum (II) (cis-Pt) (Sigma Chemical Co., St. Louis, Mo.) was dissolved in sterile saline at concentrations of 0.8, 1.6 and 3.2 mg/ml and mixed 1:1 with bovine collagen (BC) (36 mg/ml) in PBS 20 mM phosphate, 140 mM NaCl (Collagen Corp., Palo Alto, Calif.). Doses of 2, 4 and 8 mg/kg host of cis-Pt were delivered in 0.1 ml of the collagenous drug mixture to the center of the tumor growing in the flank (intratumorally, i.t.), and the tumor measured. The growth of a second uninjected tumor on the opposing flank of the same mouse was also measured. […] The growth of the tumors was monitored three times per week by caliper measurements of three perpendicular diameters of the tumor and calculating tumor volume from the formula
*Regrowth Delay determined as the time (days) for tumors to grow to four […]
In the next study a combination of bleomycin sulfate (Sigma Chemical Co., St. Louis, Mo.) (15 mg/kg) and epinephrine (5 mg/kg) employed in a bovine collagen composition were evaluated for antitumor effect in the transplantable experimental murine fibrosarcoma model previously described. […]

[2] = system: experimental murine fibrosarcoma (RIF-1 cells); assay: Regrowth delay of the treated transplantable murine fibrosarcoma; assay type: in vivo, murine; female C3H mice; details: ADM 15 mg/kg, i.p.; time to 3× original treatment volume (~150 mm^3)

## COc1cccc2c1C(=O)c1c(O)c3c(c(O)c1C2=O)C[C@@](O)(C(=O)CO)C[C@@H]3O[C@H]1C[C@H](N)[C@H](O)[C@H](C)O1 [Free ADM, doxorubicin-HCl]
White blood cells
  White Blood Cells/mm^3: 3.4 Cells/mm^3 (× 10^3)
[1]
  Tumor Regrowth Delay, Contralateral: 10.6 ± 1.6 days
[2]
  Tumor Regrowth Delay, Treated: 10.6 ± 1.6 days

Counter-ions that a name gives are not always drawn. Marks after values point to notes of the source that are not given here.
